Test results: patent publication US8470841B2, “Heterocyclic compounds, processes for their preparation, medicaments comprising these compounds, and the use thereof” (Sanofi, priority 2008, dated 2013)

Biological target: human ACC1 (Homo sapiens (Human), UniProt Q13085)
Experiment: Enzymatic luminometric assay of ACC inhibitors, human ACC1
Settings: read-out: IC50 hACC (human ACC1), table row printed as hACC

CC(=O)N[C@@H](C)COc1ccc(Oc2ccc(OC(C)C)cc2)cc1 [Example 59, N—{(S)-2-[4-(4-Isopropoxyphenoxy)phenoxy]-1-methylethyl}acetamide, reference compound]
IC50: 7.8 µM
